Only a part is listed here, and it is no random draw. Calls of active or inactive are those of the source.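 Rule for the calls: active = inhibition above the plate cutoff, the mean of all test compounds on that plate plus 3 SD (cut at about 35% in these data); inactive = the rest.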
Assay: small molecules binding CAG repeat RNA – biochemical, fluorescence, primary screen (AID 651821);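 note: 0% = DMSO alone and 100% = 100 µM mitoxantrone as full dye displacement; higher means more dye released from RNA so lower well fluorescence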
Conditions: r(CAG) RNA repeat, TO-PRO-1 dye displacement fluorescence; at 3 µM; stronger effect = higher value

Row | Compound | inhibition
1 | CCCC1OP(N)(=O)OCC1CC (configuration not stated) | inactive: 1.25%
2 | CCn1c(=O)n(C2CCN(CC3CCCCCCC3)C[C@H]2CO)c2ccccc21 (some centres not stated) | inactive: -1.29%
3 | CCOP(=O)(Nc1ccccc1)OCC | inactive: -0.54%
4 | Cc1cc(SC(NC(=O)c2ccc(F)cc2)C(Cl)(Cl)Cl)ncn1 (configuration not stated) | inactive: -1.15%
5 | Cc1ccc(NP(=O)(Oc2ccccc2F)Oc2ccccc2F)nc1 | inactive: -0.62%
6 | Oc1ccccc1CNc1ccccn1 | inactive: -0.23%
7 | O=C(NC(Sc1ccncn1)C(Cl)(Cl)Cl)c1ccccc1 (configuration not stated) | inactive: -3.67%
8 | CC(C)CC(=O)NC(Sc1ccc(Cl)cc1)C(Cl)(Cl)Cl (configuration not stated) | inactive: -6.19%
9 | Nc1cc(N)c2nonc2c1[N+](=O)[O-] | inactive: 0.07%
10 | Cc1ccc(N/C(=N/P(=O)(N2CCOCC2)N2CCOCC2)N2CCOCC2)cc1 | inactive: -4.42%
11 | NC(=O)c1cc([N+](=O)[O-])cc([N+](=O)[O-])c1N | inactive: 1.86%
12 | Clc1ccc(Cl)c(NC2=NCC(CBr)S2)c1 (configuration not stated) | inactive: 1.77%
13 | CN1CCCC(OC(=O)C(c2ccccc2)c2ccccc2)C1 (configuration not stated) | inactive: -10.7%
14 | COc1ccccc1OP(=O)(Nc1ccc(C)cn1)Oc1ccccc1OC | inactive: -3.64%
15 | Cc1ccc(OP(=O)(Nc2nccs2)Oc2ccc(C)cc2)cc1 | inactive: -0.69%
16 | Cc1ccccc1CN(C)C(=O)COC(=O)C(O)(c1ccccc1)c1ccccc1 | inactive: 1.69%
17 | C[C@@H]1C=CCP(=O)(Oc2ccccc2)O1 (some centres not stated) | inactive: 0.45%
18 | C[C@H]1OP(=O)(Oc2ccccc2)C[C@@H]2O[C@@H]21 (some centres not stated) | inactive: -0.11%
19 | N#C/C(=C\c1ccc(N(CCBr)CCBr)cc1)C(N)=O | inactive: 2.73%
20 | CC(=O)c1ccc(N2CC2c2ccncc2)cc1 (configuration not stated) | inactive: 3.86%
21 | COC(=O)C1(C)COP(=O)(NCc2ccccc2)OC1 (configuration not stated) | inactive: -0.83%
22 | CC(=O)Nc1ccc([As](=O)(O)O)c(O)c1 | inactive: 0.07%
23 | CC(=O)Nc1ccc(Oc2c([N+](=O)[O-])cc([N+](=O)[O-])cc2[N+](=O)[O-])cc1 | inactive: 5.85%
24 | O=P1(Nc2nc3ccc(Cl)cc3s2)COc2ccccc2O1 (configuration not stated) | inactive: 0.3%
25 | CCOc1ccc(C2=NCC(CBr)S2)cc1 (configuration not stated) | inactive: -1.57%
26 | CC(C)(C)C(=O)NC(Sc1ccccc1)C(Cl)(Cl)Cl (configuration not stated) | inactive: -6.45%

Row | Compound | inhibition
27 | CCc1cc(O)c([N+](=O)[O-])c(C)c1[N+](=O)[O-] | inactive: 2.84%
28 | O=C(OC1CN2CCC1CC2)c1ccccc1 (configuration not stated) | inactive: -1.08%
29 | CCC(=O)N1C2C3N(C(=O)CC)C1C1N(C(=O)CC)C(C(N1C(=O)CC)N3C(=O)CC)N2C(=O)CC | inactive: -0.22%
30 | COC(=O)c1cc2c(s1)N=C(c1ccccc1)N(C)P2(=O)N1CCOCC1 (configuration not stated) | inactive: 2.12%
31 | Cc1ccc(OP(=O)(Nc2ccccn2)Oc2ccc(C)cc2)cc1 | inactive: -7.94%
32 | CC(=O)NC(SC(=S)N(CC(C)C)CC(C)C)C(Cl)(Cl)Cl (configuration not stated) | inactive: 0.2%
33 | Cc1ccccc1OP(=O)(Nc1ccccn1)Oc1ccccc1C | inactive: -8.49%
34 | CC(NC(=O)COC(=O)C(O)(c1ccccc1)c1ccccc1)c1ccccc1 (configuration not stated) | inactive: -9.92%
35 | CN(C)C(=O)Oc1noc2ccccc12 | inactive: -0.59%
36 | O=c1c2cc([N+](=O)[O-])ccc2[nH]c2c([N+](=O)[O-])cc([N+](=O)[O-])cc12 | inactive: 27.6%
37 | c1ccc(-c2nn[nH]n2)c(-c2nn[nH]n2)c1 | inactive: -2.39%
38 | Cc1ccc(NP(=O)(Oc2cccc(C)c2)Oc2cccc(C)c2)nc1 | inactive: -1.49%
39 | O=C(NC1CCS(=O)(=O)C1)NP(=S)(Oc1ccccc1)Oc1ccccc1 (configuration not stated) | inactive: -1.58%
40 | CCNC(=S)/N=C(\N)N[N+](=O)[O-] | inactive: 2.64%
41 | O=P1(N(CCCl)CCCl)OCCC2CCCCN21 (configuration not stated) | inactive: -0.36%
42 | O=[As](O)(c1ccccc1)c1ccc(O)cc1 | inactive: 1.59%
43 | O=[N+]([O-])c1ncn(CCn2cnc([N+](=O)[O-])n2)n1 | inactive: 0.24%
44 | CC(=O)NC(SC(=S)N(C)C)C(Cl)(Cl)Cl (configuration not stated) | inactive: -1.42%
45 | O=C(OC1CN2CCC1CC2)c1cccc(Cl)c1 (configuration not stated) | inactive: -0.14%
46 | C/C(N)=N\P(=O)(OCc1ccccc1)OCc1ccccc1 | inactive: 1.99%
47 | Nc1ccc([As](=O)(O)c2ccc([N+](=O)[O-])cc2)cc1 | inactive: 1.07%
48 | C(Cc1nn[nH]n1)Cc1nn[nH]n1 | inactive: 2.1%
49 | CN(C)C1(CNC(=O)c2ccc(Cl)c(S(N)(=O)=O)c2)CCCCC1 | inactive: 4.24%
50 | O=P(Nc1ccccn1)(c1ccc(Br)cc1)c1ccc(Br)cc1 | inactive: -5.44%
51 | Nc1ccc(CCCCOc2ccccc2)cc1 | inactive: 2.06%
52 | COc1ccc(N)c([N+](=O)[O-])c1[N+](=O)[O-] | inactive: 8.55%

Row | Compound | inhibition
53 | O=P(Nc1nc2ccccc2s1)(c1ccccc1)c1ccccc1 | inactive: -2.14%
54 | C[C@H]1OP(=O)(Oc2ccccc2)[C@H](O)[C@H](O)[C@H]1N=[N+]=[N-] (some centres not stated) | inactive: -2.75%
55 | O=P(Nc1nccs1)(c1ccccc1)c1ccccc1 | inactive: 1.15%
56 | CC(C)C(=O)NC(Sc1ccccc1)C(Cl)(Cl)Cl (configuration not stated) | inactive: -3.55%
57 | c1nnnn1CCn1cnnn1 | inactive: 0.38%
58 | COc1ccccc1CNC(=O)COC(=O)C(O)(c1ccccc1)c1ccccc1 | inactive: -4.01%
59 | CC(C)/C=N\N=C(\N)N[N+](=O)[O-] | inactive: -0.8%
60 | CC1(CBr)Cn2c(nc3ccccc3c2=O)S1 (configuration not stated) | inactive: 0.61%
61 | CCC1=CC2Cc3nc4ccc(Cl)cc4c(N)c3C(C1)C2 (configuration not stated) | inactive: 12.7%
62 | O=P1(Nc2ccccn2)COc2ccccc2OC1 | inactive: 2.11%
63 | CCOP(=O)(NC(=NC(C)c1ccccc1)NC(C)c1ccccc1)OCC (configuration not stated) | inactive: -3.2%
64 | CN(CCCl)Cc1cc(Cl)c(NC2=NCCN2)c(Cl)c1 | inactive: 2.59%
65 | CCOP(=O)(Nc1ccc(C)cn1)OCC | inactive: 3.42%
66 | Clc1n[nH]nc1-c1nn[nH][15n]1 | inactive: 4.72%
67 | O=P1(N(CCCl)CCCl)NCCC(C(F)(F)F)O1 (configuration not stated) | inactive: 2.61%
68 | CC(C)(C)C(=O)NC(Sc1ncccn1)C(Cl)(Cl)Cl (configuration not stated) | inactive: -5.48%
69 | Cc1ccc(S(=O)(=O)N(CCCN)CCCc2c(C)nc(N)[nH]c2=O)cc1 | inactive: 9.42%
70 | O=P1(Nc2ncccn2)COc2ccccc2OC1 | inactive: -0.34%
71 | Nc1cccc([As](=O)(O)c2ccccc2)c1 | inactive: 1.91%
72 | NS(=O)(=O)c1cccc(NC(=O)COC(=O)C(O)(c2ccccc2)c2ccccc2)c1 | inactive: 5.37%
73 | O=P1(Nc2ccc(Br)cn2)COc2ccccc2OC1 | inactive: -0.2%
74 | O=[As](O)(c1cccs1)c1cccs1 | inactive: -0.2%
75 | Cc1ccc(OCC(=O)OC2CN3CCC2CC3)cc1 (configuration not stated) | inactive: -0.74%
76 | Cc1nn(-c2ccccc2)c2c1P(=O)(N1CCOCC1)N(C)C(c1ccccc1)=N2 (configuration not stated) | inactive: -3.2%
77 | Cc1ccc(C(=O)OC2CN3CCC2CC3)cc1 (configuration not stated) | inactive: -0.76%
78 | CC1CCC(C(C)C)C(OP(=O)(Nc2ccccn2)c2ccccc2)C1 (configuration not stated) | inactive: -11.2%

Row | Compound | inhibition
79 | CN(C)C1(CNC(=O)c2ccc(S(C)(=O)=O)cc2)CCCCC1 | inactive: -4.22%
80 | O=C(/C=C/c1ccccc1)OC1CN2CCC1CC2 (configuration not stated) | inactive: 0.37%
81 | CCCC1OP(=O)(Nc2ccccc2)OCC1CC (configuration not stated) | inactive: -0.29%
82 | NC(=O)Nc1ccc([As](=O)(O)O)cc1 | inactive: 0.53%
83 | N#CCCN(C(=O)COC(=O)C(O)(c1ccccc1)c1ccccc1)c1ccc(F)cc1 | inactive: -8.99%
84 | CN(C(=O)Cc1ccccc1)[C@@H]1CC[C@]2(CCCO2)C[C@H]1N1CCCC1 | inactive: 2.18%
85 | CCOP1(=S)c2c(C)nn(CCC#N)c2N=C(c2ccc(F)cc2)N1C (configuration not stated) | inactive: -6.07%
86 | CN(C)C(=O)c1cc([N+](=O)[O-])cc2c1-c1c(cc([N+](=O)[O-])cc1[N+](=O)[O-])C2=O | inactive: 0.76%
87 | O=[N+]([O-])c1ccc2c(c1)nnn2O | inactive: 1.63%
88 | CN(C(=O)Cc1ccc(Cl)c(Cl)c1)[C@H]1CC[C@@]2(CCCO2)C[C@@H]1N1CCCC1 | inactive: -2.15%
89 | CCOP1(=S)c2c(C)nn(CCC#N)c2N=C(c2ccccc2F)N1C (configuration not stated) | inactive: -7.91%
90 | O=P(Nc1nccs1)(Oc1ccccc1)Oc1ccccc1 | inactive: 2.4%
91 | O=C(O)COc1ccc([As](=O)(O)O)cc1[N+](=O)[O-] | inactive: -0.12%
92 | Nc1ccccc1[As](=O)(O)c1ccccc1 | inactive: -0.68%
93 | Nc1cccc2c([As](=O)(O)O)cccc12 | inactive: -108%
94 | Cc1ccc(NCCc2c([N+](=O)[O-])cc([N+](=O)[O-])cc2[N+](=O)[O-])cc1 | inactive: 17.9%
95 | CCCOP(=S)(Nc1nc(N)cc(=O)[nH]1)OCCC | inactive: 8.16%
96 | COc1cc(C2NCCC3(OCCO3)C2(C)C)cc(OC)c1OC (configuration not stated) | inactive: -6.17%
97 | CCOP(=O)(Nc1cccc2ccccc12)OCC | inactive: -5.62%
98 | O=C(OC1CN2CCC1CC2)c1ccc(Cl)cc1 (configuration not stated) | inactive: 1.36%
99 | COc1cc(C(=O)NCC2(N3CCOCC3)CCCCC2)cc(Cl)c1OC(C)C | inactive: -2.49%
100 | O=[As](O)(O)c1cccnc1 | inactive: -1.84%
101 | CS(=O)(=O)c1ccc(Cl)c(NC(=O)COC(=O)C(O)(c2ccccc2)c2ccccc2)c1 | inactive: -1.53%
102 | O=[As](O)(c1cccc(O)c1)c1cccc(O)c1 | inactive: -0.44%
